In PubChem BioAssay AID1974 (The Scripps Research Institute Molecular Screening Center, 2009):
Only a part is listed here, and it is no random draw. Some results for these compounds are left out of this collection, so the calls shown say nothing about other tests. Calls of active or inactive are those of the source.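 Rule for the calls: active = inhibition above the campaign mean inhibition plus 3 SD (cut at about 35% in these data); inactive = the rest.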

The chains behind the UniProt entries cited, without tags or fusion partners.
UniProt P78417, whole entry: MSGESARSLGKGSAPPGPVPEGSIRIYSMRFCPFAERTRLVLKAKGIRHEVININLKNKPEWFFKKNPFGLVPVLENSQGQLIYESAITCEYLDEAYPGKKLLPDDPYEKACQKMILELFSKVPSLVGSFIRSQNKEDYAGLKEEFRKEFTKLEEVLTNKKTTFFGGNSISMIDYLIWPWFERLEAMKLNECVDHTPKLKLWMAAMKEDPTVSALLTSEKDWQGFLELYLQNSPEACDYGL

The molecules below were run against Glutathione S-transferase omega-1 (Homo sapiens) (UniProt P78417) (assay: human GSTO1 enzyme inhibition – biochemical, fluorescence polarization, counter-screen for RBBP9 inhibitor project, primary screen (AID 1974;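 note: 0% = GSTO1-1 with DMSO and 100% = wells lacking GSTO1-1 enzyme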)). Details: recombinant GSTO1, activity-based probe fluorescence polarization; at 5.96 µM; active compounds read high.
`COc1ccc(C(=O)NCC2(N(C)C)CCCCC2)cc1` was tested, and the inhibition was inactive: -1.14%.
In the case of `CCN1CCCC(OC(=O)C2(O)c3ccccc3C=Cc3ccccc32)C1` (centres undefined), the inhibition was inactive: 0.86%.
With `Cc1cc(C(=O)NCC2(N3CCCCC3)CCCCC2)ccc1[N+](=O)[O-]` the inhibition was inactive: -1.31%.
For `O=C(NCC1(N2CCCCC2)CCCCC1)c1cccc(Br)c1`, the inhibition was inactive: -0.88%.
With `C=CCN1CCN(CCOC(=O)C(O)(c2ccccc2)c2ccccc2)CC1` the inhibition was inactive: 4.05%.
For `O=C(NCC1(N2CCCCC2)CCCCC1)c1cc(F)c(F)cc1Cl`, the inhibition was inactive: 3.46%.
`Cc1ccccc1C(=O)NCC1(N2CCCCC2)CCCCC1` was tested, and the inhibition was inactive: 1.07%.
In the case of `CN(C)c1ccc(C(=O)NCC2(N(C)C)CCCCC2)cc1`, the inhibition was inactive: 4.38%.
With `CN(C)C1CCCC1OC(=O)C(O)(c1ccccc1)c1ccccc1` (centres undefined) the inhibition was inactive: 1.96%.
`Cc1ccc(C(=O)NCC2(N3CCCCC3)CCCCC2)cc1` was tested, and the inhibition was inactive: 5.19%.
In the case of `CCN(CC)CC(C)C(C)OC(=O)C(O)(c1ccccc1)c1ccccc1` (centres undefined), the inhibition was inactive: -1.37%.
For `COc1cc(SC)ccc1C(=O)NCC1(N(C)C)CCCCC1`, the inhibition was inactive: -2.56%.
In the case of `CC(C)N1C(=O)CC2(CCN(CCOC(=O)C(O)(c3ccccc3)c3ccccc3)CC2)C1=O`, the inhibition was inactive: 1.22%.
With `CN1[C@@H]2CC[C@H]1CC(OC(=O)C(O)(c1ccccc1)c1ccccc1)C2` (some centres undefined) the inhibition was inactive: -3.96%.
`O=C(NCC1(N2CCCCC2)CCCCC1)c1cc([N+](=O)[O-])ccc1Cl` was tested, and the inhibition was inactive: 5.25%.
In the case of `CC(C)Oc1ccc(C(=O)NCC2(N(C)C)CCCCC2)cc1`, the inhibition was inactive: 0.04%.
With `CN(C)c1cccc(C(=O)NCC2(N(C)C)CCCCC2)c1` the inhibition was inactive: -4.2%.
With `COc1ccc(Br)c(C(=O)NCC2(N3CCCCC3)CCCCC2)c1` the inhibition was inactive: 10.3%.
In the case of `O=C(OC1CN2CCC1CC2)C(CO)(c1ccccc1)c1ccccc1` (centres undefined), the inhibition was inactive: 2.59%.
With `O=C(NCC1(N2CCCCC2)CCCCC1)c1cccc(Cl)c1` the inhibition was inactive: 6.51%.
With `COc1cccc(C(=O)NCC2(N3CCCCC3)CCCCC2)c1` the inhibition was inactive: -3.08%.
In the case of `COc1ccc(Cl)cc1C(=O)NCC1(N(C)C)CCCCC1`, the inhibition was inactive: 4.82%.
In the case of `COc1cc(C(=O)NCC2(N(C)C)CCCCC2)c([N+](=O)[O-])cc1OC`, the inhibition was inactive: 2.9%.
With `CN(C)C1(CNC(=O)c2ccc(Br)cc2)CCCCC1` the inhibition was inactive: 2.9%.
